Target: T1, kinase-inducible domain interacting domain (KIX) of CREB binding protein (CBP), residues 586-672 (UniProt P45481, in part)
T1 construct: the limits 586-672 are those commonly used for the KIX domain of mouse CBP (surmise); The paragraph on its purification speaks of 'p53' from the elution onward, so the cleavage of the His tag from KIX is not sure; also called CBP/KIX; KIX (586-672); source: E. coli BL21 (DE3), purified (Ni-NTA, Superdex 75); not shown: His7, N-terminal, cleaved
Assay: ITC; p53 constructs in the syringe (50-500 uM), KIX in the cell (5-50 uM); 25 °C; 50 mM Tris, 50 mM NaCl, pH 7.0; single-site model; triplicate
Conditions: both partners purified

By UniProt entry, the sequences of proteins in these tests, tags left out. Residues count along the entry.
UniProt P45481, 586-672: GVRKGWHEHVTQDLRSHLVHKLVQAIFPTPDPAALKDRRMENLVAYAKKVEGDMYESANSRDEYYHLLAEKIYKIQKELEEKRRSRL

B1: p53 transactivation domain, wild type (p53TAD) (domain or fragment)
chain: not shown
notes: The limits […] are printed for the mutants; also called p53TAD WT; p53TAD wild type; source: E. coli BL21 (DE3), purified (Ni-NTA, thrombin cleavage, Ni-NTA, Superdex 75); not shown: His7, N-terminal, cleaved
Kd: 11 µM
dH: 10.9 kJ/mol

Reference: article PMC6468375, “p53 Phosphomimetics Preserve Transient Secondary Structure but Reduce Binding to Mdm2 and MdmX” (Biomolecules, 2019)
